# Source: ChEMBL document CHEMBL4831494, “Synthesis and evaluation of FAK inhibitors with a 5-fluoro-7H-pyrrolo[2,3-d]pyrimidine scaffold as anti-hepatocellular carcinoma agents” (Eur J Med Chem, 2021)
# The chains behind the UniProt entries cited, without tags or fusion partners.
# UniProt P35968, whole entry: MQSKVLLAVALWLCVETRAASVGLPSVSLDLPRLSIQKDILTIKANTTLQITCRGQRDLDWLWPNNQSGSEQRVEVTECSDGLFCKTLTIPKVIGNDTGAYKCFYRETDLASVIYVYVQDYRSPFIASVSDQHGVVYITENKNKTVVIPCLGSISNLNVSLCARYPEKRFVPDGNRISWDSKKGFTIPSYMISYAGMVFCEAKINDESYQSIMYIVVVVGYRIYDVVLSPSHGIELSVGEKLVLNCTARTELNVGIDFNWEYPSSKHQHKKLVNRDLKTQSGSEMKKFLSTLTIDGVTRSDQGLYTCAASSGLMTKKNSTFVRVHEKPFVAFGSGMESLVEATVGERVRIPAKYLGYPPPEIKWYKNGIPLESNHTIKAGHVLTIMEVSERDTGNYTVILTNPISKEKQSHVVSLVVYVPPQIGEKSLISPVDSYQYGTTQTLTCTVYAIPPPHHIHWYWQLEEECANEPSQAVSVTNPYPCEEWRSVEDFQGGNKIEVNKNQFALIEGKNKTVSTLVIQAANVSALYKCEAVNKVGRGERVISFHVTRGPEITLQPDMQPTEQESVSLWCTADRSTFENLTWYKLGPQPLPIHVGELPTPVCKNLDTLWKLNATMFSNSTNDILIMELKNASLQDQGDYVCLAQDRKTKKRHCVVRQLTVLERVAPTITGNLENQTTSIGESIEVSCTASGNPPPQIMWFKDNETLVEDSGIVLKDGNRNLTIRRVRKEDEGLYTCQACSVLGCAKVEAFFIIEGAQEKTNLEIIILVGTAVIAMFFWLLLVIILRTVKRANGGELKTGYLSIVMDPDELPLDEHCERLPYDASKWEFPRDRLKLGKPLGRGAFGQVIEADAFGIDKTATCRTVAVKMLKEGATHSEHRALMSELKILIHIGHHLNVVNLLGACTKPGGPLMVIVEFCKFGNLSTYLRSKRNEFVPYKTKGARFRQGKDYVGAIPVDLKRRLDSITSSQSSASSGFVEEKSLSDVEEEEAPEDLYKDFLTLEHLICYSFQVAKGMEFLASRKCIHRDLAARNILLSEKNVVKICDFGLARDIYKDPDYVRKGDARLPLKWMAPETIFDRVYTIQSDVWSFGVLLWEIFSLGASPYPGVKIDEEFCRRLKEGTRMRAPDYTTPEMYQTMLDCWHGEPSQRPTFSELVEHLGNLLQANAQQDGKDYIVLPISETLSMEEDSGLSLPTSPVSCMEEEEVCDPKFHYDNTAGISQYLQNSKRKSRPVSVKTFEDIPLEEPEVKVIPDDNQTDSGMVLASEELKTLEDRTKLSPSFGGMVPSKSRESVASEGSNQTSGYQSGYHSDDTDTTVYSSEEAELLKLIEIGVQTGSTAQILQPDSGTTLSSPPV
# Tests used:
# Format in all cases: cell-based
# [1] = target: Epidermal growth factor receptor (Homo sapiens) (UniProt P00533); assay: Upregulation of EGFR phosphorylation at Tyr1197 residue in human HCC cells at 30 uM by KEGG analysis relative to control
# [2] = target: Epidermal growth factor receptor (Homo sapiens) (UniProt P00533); assay: Upregulation of EGFR phosphorylation at Thr693 residue in human HCC cells at 30 uM by KEGG analysis relative to control
# [3] = target: Epidermal growth factor receptor (Homo sapiens) (UniProt P00533); assay: Upregulation of EGFR phosphorylation at Tyr1172 residue in human HCC cells at 30 uM by KEGG analysis relative to control
# [4] = target: Epidermal growth factor receptor (Homo sapiens) (UniProt P00533); assay: Upregulation of EGFR phosphorylation at Ser1070 residue in human HCC cells at 30 uM by KEGG analysis relative to control
# [5] = target: Vascular endothelial growth factor receptor 2 (Homo sapiens) (UniProt P35968); assay: Upregulation of VEGFR2 phosphorylation at Tyr951 residue in human HCC cells at 30 uM by KEGG analysis relative to control
# [6] = target: Vascular endothelial growth factor receptor 2 (Homo sapiens) (UniProt P35968); assay: Upregulation of VEGFR2 phosphorylation at Tyr1214 residue in human HCC cells at 30 uM by KEGG analysis relative to control
compound,measurement,setting,value
CNC(=O)c1ccccc1Nc1nc(Nc2cccc(NC(C)=O)c2)nc2[nH]cc(F)c12,fold change (FC),[1],2.21
same,fold change (FC),[2],2.97
same,fold change (FC),[3],2.02
same,fold change (FC),[4],3.94
same,fold change (FC),[5],2.63
same,fold change (FC),[6],2.67
